Values quoted from earlier work, collected in patent US20210322426A1, “METHODS OF TREATING CANCER WITH PI3K ALPHA INHIBITORS AND METFORMIN” (Genentech, Inc., priority 2018, published 2021).

The chains behind the UniProt entries cited, without tags or fusion partners.
UniProt P03372, whole entry: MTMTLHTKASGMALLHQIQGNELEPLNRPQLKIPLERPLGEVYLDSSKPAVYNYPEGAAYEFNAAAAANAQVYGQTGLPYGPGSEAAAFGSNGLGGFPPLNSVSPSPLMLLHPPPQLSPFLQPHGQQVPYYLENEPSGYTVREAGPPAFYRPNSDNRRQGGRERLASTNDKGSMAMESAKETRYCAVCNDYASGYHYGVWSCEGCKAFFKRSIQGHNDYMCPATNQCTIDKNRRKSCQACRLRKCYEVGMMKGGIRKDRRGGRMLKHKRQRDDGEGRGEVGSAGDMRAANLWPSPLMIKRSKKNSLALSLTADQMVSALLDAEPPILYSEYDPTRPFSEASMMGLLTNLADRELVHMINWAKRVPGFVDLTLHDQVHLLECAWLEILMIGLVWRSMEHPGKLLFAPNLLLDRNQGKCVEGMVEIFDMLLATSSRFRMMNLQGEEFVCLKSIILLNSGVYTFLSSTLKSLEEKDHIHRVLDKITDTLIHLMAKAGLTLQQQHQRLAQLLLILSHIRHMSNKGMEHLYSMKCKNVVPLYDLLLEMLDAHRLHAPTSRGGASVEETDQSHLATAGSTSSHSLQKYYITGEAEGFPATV

Molecular target: ER (Homo sapiens, UniProt P03372)
Conditions: greater than that of tamoxifen; cited from earlier work

C[C@]12CC[C@@H]3c4ccc(O)cc4C[C@@H](CCCCCCCCC[S+]([O-])CCCC(F)(F)C(F)(F)F)[C@H]3[C@@H]1CC[C@@H]2O (stereo partly drawn) [fulvestrant, (7α,17β)-7-{9-[(4,4,5,5,5-pentafluoropentyl)sulfinyl]nonyl}estra-1,3,5(10)-triene-3,17-diol]
affinity for the ER relative to tamoxifen: approximately 100 fold
